This passage reports activity change, negative = inhibition and Potency results from PubChem BioAssay AID1461 (National Center for Advancing Translational Sciences (NCATS), 2008).

Chains of the proteins cited; added tags and fusions are not shown.
UniProt Q6W5P4, whole entry: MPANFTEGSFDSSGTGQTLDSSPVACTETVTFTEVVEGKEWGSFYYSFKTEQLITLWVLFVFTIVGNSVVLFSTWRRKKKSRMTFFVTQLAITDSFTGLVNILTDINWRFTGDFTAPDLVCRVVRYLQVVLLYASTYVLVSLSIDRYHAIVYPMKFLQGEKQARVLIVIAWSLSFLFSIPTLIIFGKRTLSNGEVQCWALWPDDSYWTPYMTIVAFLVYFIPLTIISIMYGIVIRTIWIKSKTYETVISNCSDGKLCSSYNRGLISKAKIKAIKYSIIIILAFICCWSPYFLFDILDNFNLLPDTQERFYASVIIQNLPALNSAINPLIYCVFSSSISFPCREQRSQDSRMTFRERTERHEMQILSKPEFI

Molecules are shown by their SMILES. Only a part is listed here, and it is no random draw. Results filed as inconclusive are left out. Entries that show only a call come without a potency. Calls of active or inactive are those of the source. Calls come from the whole dose curve; as a rule, active = well fitted inhibition curve with a large enough effect; inconclusive = small, poorly fitted or top-dose-only effect, or effect the other way; inactive = no such curve, though single readings can be large or run the other way.
Potency is the fitted concentration of half-maximal effect.

The target of the experiment is Neuropeptide S receptor (Homo sapiens) (UniProt Q6W5P4). Description: qHTS Assay for Antagonists of the Neuropeptide S Receptor: cAMP Signal Transduction. Note: nearly all actives have a fitted effect of over 50% in size. As to conditions: CHO-NPSR cells, cAMP TR-FRET, antagonist mode; series mostly up to 38.3 µM.
For the molecule `CCN(CC)CCCOC(=O)C(O)(c1ccccc1)C1CCCCC1` (stereo not drawn), the activity change, negative = inhibition result was “inactive”.

`CP(=O)(Nc1ccccc1)Oc1ccc(F)cc1` (stereo not drawn): the activity change, negative = inhibition result was “inactive”.

`CCCCCOc1ccc(NP(C)(=O)Oc2ccc(Cl)cc2Cl)cc1` (stereo not drawn): the activity change, negative = inhibition entry was “inactive”.

As for `CCOC(=O)c1ccc(NP(C)(=O)Oc2ccc(F)cc2)cc1` (stereo not drawn), the activity change, negative = inhibition entry was “inactive”.

With `COc1ccc(OP(C)(=O)Nc2ccc(SC(F)(F)F)cc2)cc1` (stereo not drawn), the activity change, negative = inhibition result was “inactive”.

As to `O=C(OCCN1CCN(CCOCc2ccccc2)CC1)C(O)(c1ccccc1)c1ccccc1`, the activity change, negative = inhibition result was “inactive”.

For `CP(=O)(Nc1ccccc1F)Oc1ccccc1` (stereo not drawn), the activity change, negative = inhibition result is “inactive”.

Consider `CC(C)c1ccc(OP(C)(=O)Nc2ccc(SC(F)(F)F)cc2)cc1` (stereo not drawn), for which the activity change, negative = inhibition entry is “inactive”.

In the case of `Cc1ccccc1NP(C)(=O)Nc1ccccc1C`, the activity change, negative = inhibition result is “inactive”.

On to `CP(=O)(Nc1ccc(SC(F)(F)F)cc1)Oc1ccc(F)cc1` (stereo not drawn), for which the activity change, negative = inhibition entry is “inactive”.

With `CCOP(C)(=S)SCC(=O)NC(C)(CC)C(=O)O` (stereo not drawn), the activity change, negative = inhibition result was “inactive”.

As for `O=[N+]([O-])c1ccc(OP2(=O)COCCO2)cc1` (stereo not drawn), the activity change, negative = inhibition entry was “inactive”.

Regarding `Cc1cc(-c2cccc3ccccc23)c(C)cn1.O=[N+]([O-])c1cc([N+](=O)[O-])c(O)c([N+](=O)[O-])c1`, the activity change, negative = inhibition entry was “inactive”.

For the molecule `COc1ccc(OP(C)(=O)Nc2cccc(Br)c2)cc1` (stereo not drawn), the activity change, negative = inhibition result was “inactive”.

On to `CN(C)CCOC(=O)C(O)(c1ccccc1)C1CCCCC1` (stereo not drawn), for which the activity change, negative = inhibition result is “inactive”.

Take `COc1ccc(NP(C)(=O)Oc2ccccc2OC)cc1` (stereo not drawn): the activity change, negative = inhibition entry was “inactive”.

Regarding `CCOC(=O)c1ccc(NP(C)(=O)Oc2ccc(Cl)cc2)cc1` (stereo not drawn), the activity change, negative = inhibition result is “inactive”.

As for `CP(=O)(OC12CC3CC(CC(C3)C1)C2)OC12CC3CC(CC(C3)C1)C2`, the Potency was active: 10 µM.

Turning to `CC(C)(C)c1ccc(OP(C)(=O)O)cc1`, the activity change, negative = inhibition result is “inactive”.

Take `COc1ccccc1OP(C)(=O)Nc1ccccc1Br` (stereo not drawn): the activity change, negative = inhibition result was “inactive”.

Consider `CP(=O)(Nc1ccc(Cl)cc1)Oc1ccc(F)cc1` (stereo not drawn), for which the activity change, negative = inhibition result is “inactive”.

In the case of `CN(C)C(=O)c1c([N+](=O)[O-])cc([N+](=O)[O-])cc1[N+](=O)[O-]`, the activity change, negative = inhibition result is “inactive”.

For the molecule `COc1ccc(OP(C)(=O)Nc2ccc(Br)cc2)cc1` (stereo not drawn), the activity change, negative = inhibition entry was “inactive”.

As for `CCN(CC)CC(O)COC(=O)C(O)(c1ccccc1)C1CCCCC1` (stereo not drawn), the activity change, negative = inhibition result is “inactive”.

Regarding `N#[O+].[C-]#N.[C-]#N.[C-]#N.[C-]#N.[C-]#N.[Fe+2].[Na+].[Na+]`, the activity change, negative = inhibition entry is “inactive”.

With `O=C(OCCCN1CCCC1)C(O)(c1ccccc1)C1CCCCC1` (stereo not drawn), the activity change, negative = inhibition entry was “inactive”.

Take `COc1ccccc1OP(C)(=O)Nc1c(C)n(C)n(-c2ccccc2)c1=O` (stereo not drawn): the activity change, negative = inhibition result was “inactive”.

For the molecule `CCc1ccc(OP(C)(=O)Nc2cccnc2)cc1` (stereo not drawn), the activity change, negative = inhibition result is “inactive”.

On to `CP(=O)(Oc1ccccc1)N1CCOC1=O` (stereo not drawn), for which the activity change, negative = inhibition entry is “inactive”.

Turning to `O=[N+]([O-])c1cc([N+](=O)[O-])c(Nc2ccccn2)c([N+](=O)[O-])c1`, the activity change, negative = inhibition entry is “inactive”.

Regarding `Cc1c(NP(C)(=O)Oc2ccc(C(C)C)cc2)c(=O)n(-c2ccccc2)n1C` (stereo not drawn), the activity change, negative = inhibition entry is “inactive”.

Regarding `COc1ccccc1OP(C)(=O)Nc1ccc(C)cc1C` (stereo not drawn), the activity change, negative = inhibition entry was “inactive”.

On to `CP(=O)(Nc1ccccn1)Oc1ccccc1` (stereo not drawn), for which the activity change, negative = inhibition entry is “inactive”.

With `CCc1ccc(OP(C)(=O)O)cc1`, the activity change, negative = inhibition result was “inactive”.

As for `COc1ccccc1OP(C)(=O)Nc1ccc(Br)cc1` (stereo not drawn), the activity change, negative = inhibition result was “inactive”.

Regarding `COc1ccc(OP(C)(=O)Nc2ccccn2)cc1` (stereo not drawn), the activity change, negative = inhibition result was “inactive”.

As for `CN(C)CCOC(=O)C(O)(c1ccccc1)C1CCCC1` (stereo not drawn), the activity change, negative = inhibition result was “inactive”.

In the case of `Cc1nc2ccc3ccccc3c2o1.O=[N+]([O-])c1cc([N+](=O)[O-])c(O)c([N+](=O)[O-])c1`, the activity change, negative = inhibition entry was “inactive”.

On to `CP(=O)(OCCOc1ccccc1)OCCOc1ccccc1`, for which the activity change, negative = inhibition result is “inactive”.

For the molecule `CP(=O)(Nc1ccc(Cl)cc1Cl)Oc1ccccc1` (stereo not drawn), the activity change, negative = inhibition entry is “inactive”.

As for `Cc1cc(C)cc(OP(C)(=O)Nc2cccc(C(F)(F)F)c2)c1` (stereo not drawn), the activity change, negative = inhibition result is “inactive”.

Turning to `COc1ccccc1OP(C)(=O)Nc1ccc(C)c(C)c1` (stereo not drawn), the activity change, negative = inhibition entry is “inactive”.

For `COc1ccc(OP(C)(=O)Nc2ccccc2Br)cc1` (stereo not drawn), the activity change, negative = inhibition result is “inactive”.

In the case of `Cc1ccc(NP(C)(=O)Oc2ccccc2)c(C)c1` (stereo not drawn), the activity change, negative = inhibition entry is “inactive”.

Regarding `COc1ccccc1OP(C)(=O)Nc1ccc(C)cc1` (stereo not drawn), the activity change, negative = inhibition result was “inactive”.

In the case of `CCOC(=O)c1ccc(NP(C)(=O)Oc2ccccc2)cc1` (stereo not drawn), the activity change, negative = inhibition result was “inactive”.

For the molecule `Cc1cc(C)cc(OP(C)(N)=O)c1` (stereo not drawn), the activity change, negative = inhibition entry was “inactive”.

Take `COc1ccc(OP(C)(=O)Nc2cccc(F)c2)cc1` (stereo not drawn): the activity change, negative = inhibition entry is “inactive”.

`COc1ccccc1OP(C)(=O)Nc1cc(Cl)ccc1C` (stereo not drawn): the activity change, negative = inhibition result is “inactive”.

As for `O=[N+]([O-])c1ccc2c(c1)C=Nc1ccccc1O2`, the activity change, negative = inhibition entry was “inactive”.

For `Cc1cccc(C)c1OP(C)(N)=O` (stereo not drawn), the activity change, negative = inhibition result is “inactive”.

Consider `CC(C)(C)c1ccc(OP(C)(=O)Nc2ccc(SC(F)(F)F)cc2)cc1` (stereo not drawn), for which the activity change, negative = inhibition result is “inactive”.

Regarding `CCN(CC)CCCOC(=O)C(O)(c1ccccc1)c1ccccc1`, the activity change, negative = inhibition result is “inactive”.

Consider `CCOC(=O)c1ccc(NP(C)(=O)Oc2ccc(OC)cc2)cc1` (stereo not drawn), for which the activity change, negative = inhibition entry is “inactive”.

`CCOP(C)(=S)SCC(=O)NC(C)C(=O)O` (stereo not drawn): the activity change, negative = inhibition entry was “inactive”.

As for `CP(=O)(Nc1ccccn1)Oc1ccc(Cl)cc1` (stereo not drawn), the activity change, negative = inhibition entry is “inactive”.

Take `CP(=O)(Oc1ccccc1)OC(c1ccccc1)C(F)(F)F` (stereo not drawn): the activity change, negative = inhibition result is “inactive”.

Turning to `Cc1cccc(C)c1OP(C)(=O)Nc1ccc(SC(F)(F)F)cc1` (stereo not drawn), the activity change, negative = inhibition result is “inactive”.

On to `Cc1cc(C)cc(OP(C)(=O)Nc2ccc(SC(F)(F)F)cc2)c1` (stereo not drawn), for which the activity change, negative = inhibition entry is “inactive”.

Regarding `CCc1ccc(OP(C)(=O)N2CCN(c3ccc([N+](=O)[O-])cc3)CC2)cc1` (stereo not drawn), the activity change, negative = inhibition result was “inactive”.

As to `CP(=O)(NC(=O)Nc1ccccc1)Oc1ccccc1` (stereo not drawn), the activity change, negative = inhibition is inactive: 14.1% [at 7.67 µM].

With `CP(=S)(Nn1cnnc1)Oc1ccccc1` (stereo not drawn), the activity change, negative = inhibition entry is “inactive”.

For `CP(=O)(Nc1ccccc1Br)Oc1ccccc1` (stereo not drawn), the activity change, negative = inhibition result is “inactive”.

Consider `COc1ccccc1OP(C)(=O)Nc1ccccc1` (stereo not drawn), for which the activity change, negative = inhibition entry is “inactive”.

Regarding `CN1CCCCC1COC(=O)C1(O)c2ccccc2CCc2ccccc21` (stereo not drawn), the activity change, negative = inhibition result was “inactive”.

Consider `COc1ccccc1OP(C)(=O)Nc1c(C)cccc1C` (stereo not drawn), for which the activity change, negative = inhibition entry was “inactive”.

Regarding `CP(=O)(Nc1ccc(SC(F)(F)F)cc1)Oc1ccccc1` (stereo not drawn), the activity change, negative = inhibition entry was “inactive”.

Turning to `CCCOc1ccc(NP(C)(=O)Oc2ccc(Cl)cc2)cc1` (stereo not drawn), the activity change, negative = inhibition result is “inactive”.

On to `O=[N+]([O-])c1cc([N+](=O)[O-])c(Nc2nnnn2CCO)c([N+](=O)[O-])c1`, for which the activity change, negative = inhibition result is “inactive”.

Regarding `Cc1nc2ccc3ccccc3c2s1.O=[N+]([O-])c1cc([N+](=O)[O-])c(O)c([N+](=O)[O-])c1`, the activity change, negative = inhibition result was “inactive”.

For `O=[N+]([O-])c1cc([N+](=O)[O-])c(-n2nnc3ccccc32)c([N+](=O)[O-])c1`, the activity change, negative = inhibition result was “inactive”.

With `Cc1ccc(C)c(NP(C)(=O)Oc2ccccc2)c1` (stereo not drawn), the activity change, negative = inhibition result was “inactive”.

For `CP(=O)(Nc1cccc(Br)c1)Oc1ccccc1` (stereo not drawn), the activity change, negative = inhibition result was “inactive”.

Take `Cc1cc(C)cc(OP(C)(=O)Nc2ccccn2)c1` (stereo not drawn): the activity change, negative = inhibition entry is “inactive”.

In the case of `COc1ccccc1OP(C)(=O)Nc1cccc(Br)c1` (stereo not drawn), the activity change, negative = inhibition result was “inactive”.

`CCOC(=O)c1ccc(NP(C)(=O)Oc2cc(C)cc(C)c2)cc1` (stereo not drawn): the activity change, negative = inhibition entry was “inactive”.

For `Cc1cc(C)cc(OP(C)(=O)Nc2ccc(C)cc2C)c1` (stereo not drawn), the activity change, negative = inhibition entry was “inactive”.

Take `CC1=NCCc2c1[nH]c1ccccc21.O=[N+]([O-])c1cc([N+](=O)[O-])c(O)c([N+](=O)[O-])c1`: the activity change, negative = inhibition result was “inactive”.
